One test deals with T1, MER (Homo sapiens, UniProt Q12866).
T1 construct: A purified kinase (MER or AXL) was incubated with a compound or DMSO
T1 sequence (Q12866 21-999): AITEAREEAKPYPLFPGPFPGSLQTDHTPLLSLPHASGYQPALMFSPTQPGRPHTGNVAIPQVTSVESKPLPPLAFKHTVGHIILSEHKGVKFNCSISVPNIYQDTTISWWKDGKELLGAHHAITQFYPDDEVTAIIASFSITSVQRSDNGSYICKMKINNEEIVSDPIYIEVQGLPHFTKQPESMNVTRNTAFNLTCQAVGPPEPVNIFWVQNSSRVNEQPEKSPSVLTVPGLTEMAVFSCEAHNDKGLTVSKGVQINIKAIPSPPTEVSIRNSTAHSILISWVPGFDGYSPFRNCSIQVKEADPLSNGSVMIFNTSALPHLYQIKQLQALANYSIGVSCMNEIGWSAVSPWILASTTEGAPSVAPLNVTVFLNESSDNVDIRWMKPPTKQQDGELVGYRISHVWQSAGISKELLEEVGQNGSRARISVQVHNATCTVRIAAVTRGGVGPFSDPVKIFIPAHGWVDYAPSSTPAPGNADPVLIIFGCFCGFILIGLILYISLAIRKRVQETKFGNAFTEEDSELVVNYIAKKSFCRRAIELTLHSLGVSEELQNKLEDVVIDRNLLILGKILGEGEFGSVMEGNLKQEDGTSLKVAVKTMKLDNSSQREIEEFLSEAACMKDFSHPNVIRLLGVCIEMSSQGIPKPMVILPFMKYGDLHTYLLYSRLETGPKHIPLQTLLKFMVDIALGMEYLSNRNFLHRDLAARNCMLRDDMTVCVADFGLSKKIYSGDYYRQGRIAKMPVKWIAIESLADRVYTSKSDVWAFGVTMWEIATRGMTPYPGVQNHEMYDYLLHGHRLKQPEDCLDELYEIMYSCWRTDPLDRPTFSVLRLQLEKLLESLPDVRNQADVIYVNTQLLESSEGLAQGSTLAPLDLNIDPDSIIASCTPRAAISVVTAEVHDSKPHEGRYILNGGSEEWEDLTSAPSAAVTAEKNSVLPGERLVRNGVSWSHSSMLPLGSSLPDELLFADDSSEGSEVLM
The test is described as follows: MER enzyme inhibition assay (in-house Kinase-Glo). Format: biochemical. For orientation: In Kinase-Glo more light means more ATP remaining.

For test [1], the system named is immune cells in tumor and spleen of MC38 tumor-bearing mice. The test is described as follows: Immunophenotyping by flow cytometry. Format: in vivo. To be noted: 50 mg/kg orally BID, FOTO, 2 weeks. On the procedure:
Tumor and spleen tissues from the control and treated animals were harvested 2 h after the last dose (day 11). […] tissues were carefully removed from the tumors followed by digestion with 0.1% collagenase III in DMEM medium for 30 min at 37 °C with agitation every 10 min. The digestion was terminated by adding 10% FBS containing PBS. The single-cell suspension was filtered through a 40 μm filter after red blood cell lysis. Aliquots of the cell suspension were preincubated with the mouse Fc receptor blocker for 10 min before staining with appropriate antimouse antibody conjugate for Cd45, Cd3, Cd4, Cd8, Cd11b, Cd86, F4/80, AXL, and MER (all antibody conjugates from BioLegend) at 4 °C for 30 min followed by two washes in 1% BSA containing buffer and analyzed by flow cytometry to quantify the accumulation of infiltrating immune cells into the tumor. For analysis of Cd206, the cells were fixed using the Cyto X/Cytoperm kit (BD Biosciences) after surface marker staining and then stained with antimouse Cd206 antibody.

In a further test the test system is Ba/F3-MER cells. Put plainly: Cell viability assay (MTS). Format: cell-based. The following applies: 72 h, read-out: Ba/F3-MER IC50.

Structures are written as SMILES.

`Nc1nc(Nc2ccc3c(c2)CC[C@@H](N2CCCC2)CC3)nn1-c1cc2c(nn1)-c1ccccc1CCC2` [Compound 3, Bemcentinib, reference compound] yielded an IC50 at MER of 636 nM.
With `Cn1cc(-c2oc3ncnc(Oc4ccc(NC(=O)c5cccn(-c6ccc(F)cc6)c5=O)cc4)c3c2-c2cccc(N)c2)cn1` [Compound 22, N-(4-{[5-(3-Aminophenyl)-6-(1-methyl-1H-pyrazol-4-yl)furo[2,3-d]pyrimidin-4-yl]oxy}phenyl)-1-(4-fluorophenyl)-2-oxo-1,2-dihydropyridine-3-carboxamide], in test [1], the “percentage of intratumoral M1-like macrophages” value is recorded as “without altering”. In addition, the IC50 with Ba/F3-MER cells was 4.5 nM.
Consider `CN(C)Cc1ccc(-c2c(-c3cnn(C)c3)oc3ncnc(Oc4ccc(NC(=O)c5cccn(-c6ccc(F)cc6)c5=O)cc4)c23)cc1` [Compound 39, N-{4-[(5-{4-[(Dimethylamino)methyl]phenyl}-6-(1-methyl-1H-pyrazol-4-yl)furo[2,3-d]pyrimidin-4-yl)oxy]phenyl}-1-(4-fluorophenyl)-2-oxo-1,2-dihydropyridine-3-carboxamide], for which the IC50 with Ba/F3-MER cells was 1.6 nM.
